Patent US20120041012A1, “SUBSTITUTED SPIROCYCLIC AMINES USEFUL AS ANTIDIABETIC COMPOUNDS” (priority 2009, published 2012)

By UniProt entry, the sequences of proteins in these tests, tags left out.
UniProt P35346, whole entry: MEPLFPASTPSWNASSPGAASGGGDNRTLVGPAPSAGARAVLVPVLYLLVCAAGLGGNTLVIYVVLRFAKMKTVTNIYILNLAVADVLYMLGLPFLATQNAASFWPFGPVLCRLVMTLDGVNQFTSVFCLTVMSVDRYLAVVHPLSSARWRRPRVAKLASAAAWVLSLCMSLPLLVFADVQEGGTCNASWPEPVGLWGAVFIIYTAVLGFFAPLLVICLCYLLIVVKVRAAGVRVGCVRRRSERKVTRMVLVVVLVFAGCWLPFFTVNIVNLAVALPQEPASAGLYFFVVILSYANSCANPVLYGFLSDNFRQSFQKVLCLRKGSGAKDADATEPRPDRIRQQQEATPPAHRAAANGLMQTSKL

Legend:
SSTR5 [1] = target: T1, SSTR5 (Homo sapiens, UniProt P35346); assay: SSTR5 receptor-ligand binding assay, CHO-K1 cell membranes, 125I-SRIF radioligand; conditions: read-out: SSTR5 Ki; Table 2; tested form: TFA
SSTR5 [2] = target: T1, SSTR5; assay: Functional assay of SSTR5 mediated cyclic AMP production in SSTR5 expressing CHO cells; conditions: read-out: SSTR5 (cAMP) IC50; Table 2; FSK plus SS-28; tested form: TFA

CC(C)Oc1ccc(-c2ccc(F)c(F)c2F)c(CN2CCC3(CC2)CC(=O)N(c2ccc(C(=O)O)cc2)C3)c1
Ki (SSTR5 [1]): 4.2 nM
IC50 (SSTR5 [2]): 4.5 nM
